Data from US20170334959A1 (priority 2015, published 2017).

The chains behind the UniProt entries cited, without tags or fusion partners.
UniProt P35499, whole entry: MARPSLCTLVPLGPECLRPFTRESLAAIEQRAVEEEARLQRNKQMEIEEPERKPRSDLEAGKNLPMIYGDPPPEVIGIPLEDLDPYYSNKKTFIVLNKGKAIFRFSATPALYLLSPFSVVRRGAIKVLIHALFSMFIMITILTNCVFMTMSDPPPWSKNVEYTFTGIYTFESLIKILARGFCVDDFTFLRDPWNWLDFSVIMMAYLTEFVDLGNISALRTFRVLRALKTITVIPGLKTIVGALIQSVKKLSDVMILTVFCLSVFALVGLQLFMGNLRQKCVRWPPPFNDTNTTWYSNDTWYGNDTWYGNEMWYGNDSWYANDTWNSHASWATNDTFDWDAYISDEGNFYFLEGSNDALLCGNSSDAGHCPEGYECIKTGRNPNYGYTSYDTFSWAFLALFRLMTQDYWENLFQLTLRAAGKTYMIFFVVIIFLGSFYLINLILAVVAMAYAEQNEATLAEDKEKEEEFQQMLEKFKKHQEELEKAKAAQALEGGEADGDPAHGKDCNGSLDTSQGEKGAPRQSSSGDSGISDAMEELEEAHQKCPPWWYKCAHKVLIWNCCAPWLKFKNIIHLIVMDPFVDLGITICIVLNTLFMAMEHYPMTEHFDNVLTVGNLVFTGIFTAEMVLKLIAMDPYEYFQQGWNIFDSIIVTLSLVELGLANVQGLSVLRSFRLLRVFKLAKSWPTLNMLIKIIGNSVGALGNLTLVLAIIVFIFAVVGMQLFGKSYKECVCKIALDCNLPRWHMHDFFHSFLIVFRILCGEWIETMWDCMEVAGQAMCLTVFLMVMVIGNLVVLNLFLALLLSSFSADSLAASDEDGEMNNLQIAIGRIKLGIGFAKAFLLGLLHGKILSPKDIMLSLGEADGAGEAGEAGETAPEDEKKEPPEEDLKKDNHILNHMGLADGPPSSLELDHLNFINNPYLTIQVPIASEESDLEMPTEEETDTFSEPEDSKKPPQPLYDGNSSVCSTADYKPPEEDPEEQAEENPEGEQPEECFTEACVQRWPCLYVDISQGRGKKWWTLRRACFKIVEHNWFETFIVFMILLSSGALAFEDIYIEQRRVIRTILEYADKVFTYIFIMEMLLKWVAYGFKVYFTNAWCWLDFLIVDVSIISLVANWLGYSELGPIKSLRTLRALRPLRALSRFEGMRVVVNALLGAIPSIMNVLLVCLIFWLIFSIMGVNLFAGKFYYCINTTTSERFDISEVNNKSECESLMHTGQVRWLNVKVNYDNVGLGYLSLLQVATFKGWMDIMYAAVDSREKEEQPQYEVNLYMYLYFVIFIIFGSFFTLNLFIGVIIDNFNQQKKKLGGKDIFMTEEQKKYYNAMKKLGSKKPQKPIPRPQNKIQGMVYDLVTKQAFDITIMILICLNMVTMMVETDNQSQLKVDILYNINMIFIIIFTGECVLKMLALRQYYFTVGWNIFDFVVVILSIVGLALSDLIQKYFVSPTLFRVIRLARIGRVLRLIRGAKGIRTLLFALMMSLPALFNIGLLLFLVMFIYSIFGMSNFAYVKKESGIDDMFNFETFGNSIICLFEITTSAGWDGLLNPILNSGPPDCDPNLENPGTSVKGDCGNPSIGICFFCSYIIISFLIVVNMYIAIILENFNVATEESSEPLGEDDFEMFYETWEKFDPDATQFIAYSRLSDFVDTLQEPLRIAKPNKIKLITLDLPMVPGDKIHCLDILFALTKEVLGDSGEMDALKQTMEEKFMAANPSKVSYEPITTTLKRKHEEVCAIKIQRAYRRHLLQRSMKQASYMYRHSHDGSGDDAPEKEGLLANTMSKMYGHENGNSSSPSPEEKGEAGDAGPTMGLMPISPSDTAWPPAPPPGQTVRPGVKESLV

Biological target: human Nav1.x channels (Homo sapiens, UniProt P35499)
Type: cell-based
Conditions: read-out: IC50 (nM) Nav1.4

With “GPYCQKWMQTCDSERKCCEGMVCRLWCKKKLL-COOH [compound 63955918]” the IC50 was 17000 nM.
